Test results as given in publication PMC6256756, “Competitive Fitness of Essential Gene Knockdowns Reveals a Broad-Spectrum Antibacterial Inhibitor of the Cell Division Protein FtsZ” (Antimicrobial Agents and Chemotherapy, 2018).

Molecular target: T1, FtsZ (BcFtsZ) (Burkholderia cenocepacia, UniProt B4E5Y7)
T1 sequence (B4E5Y7 1-398): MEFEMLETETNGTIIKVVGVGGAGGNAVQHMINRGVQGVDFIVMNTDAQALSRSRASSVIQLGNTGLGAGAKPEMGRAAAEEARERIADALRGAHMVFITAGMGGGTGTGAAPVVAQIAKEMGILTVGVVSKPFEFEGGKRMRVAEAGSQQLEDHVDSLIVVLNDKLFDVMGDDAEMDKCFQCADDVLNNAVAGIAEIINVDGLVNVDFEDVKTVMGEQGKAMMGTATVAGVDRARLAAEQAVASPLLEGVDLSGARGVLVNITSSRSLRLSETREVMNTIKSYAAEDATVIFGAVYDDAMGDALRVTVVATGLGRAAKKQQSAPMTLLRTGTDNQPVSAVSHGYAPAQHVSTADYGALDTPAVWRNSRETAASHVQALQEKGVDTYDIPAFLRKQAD
Test: biochemical

**Q.** With `COC(=O)CSc1ccc2nsnc2c1[N+](=O)[O-]` [C109, methyl [(4-nitro-2,1,3-benzothiadiazol-5-yl)thio]acetate] as the compound, how does the IC50 read?
**A.** Its IC50 is 8.2 ± 1.3 µM.
